Laboratory results from PubChem BioAssay AID651602 (The Scripps Research Institute Molecular Screening Center, 2012).
The entries are a selection whose mix differs from that of the whole data set. Some results for these compounds are left out of this collection, so the calls shown say nothing about other tests. The source made the active and inactive calls. Cut-off read from the data, not from the text of the source: active = inhibition above about 11%; inactive = the rest.

assay: reduced absorbance of E. coli cultures with phage – HTS, RecBCD inhibitor project, primary screen (AID 651602); details: growth absorbance, at 11.9 µM, active compounds read high

**Q.** For `COc1ccc(Br)c(C(=O)NCC2(N3CCCCC3)CCCCC2)c1`, which inhibition is on record?
**A.** inactive: 1.07%

**Q.** For `C=C(C)C#CC(O)(C(=O)OC1CCN(C)CC1)c1ccccc1` (stereo unspecified), which inhibition is on record?
**A.** inactive: 1.63%

**Q.** With `CN(C)c1cccc(C(=O)NCC2(N(C)C)CCCCC2)c1` as the molecule, how does the inhibition read?
**A.** inactive: 2.06%

**Q.** With `CC(C)Oc1ccc(C(=O)NCC2(N(C)C)CCCCC2)cc1` as the molecule, how does the inhibition read?
**A.** inactive: 1.51%

**Q.** For `O=C(OCCN1CCCC1)C(O)(c1ccccc1)c1ccccc1`, which inhibition is on record?
**A.** inactive: 1.93%

**Q.** For `O=C(OC1CN2CCC1CC2)C(CO)(c1ccccc1)c1ccccc1` (stereo unspecified), which inhibition is on record?
**A.** inactive: 1.26%

**Q.** For `COc1cccc(C(=O)NCC2(N3CCCCC3)CCCCC2)c1`, which inhibition is on record?
**A.** inactive: 1.23%

**Q.** With `COc1ccc(Cl)cc1C(=O)NCC1(N(C)C)CCCCC1` as the molecule, how does the inhibition read?
**A.** inactive: 2.46%

**Q.** For `O=C(NCC1(N2CCCCC2)CCCCC1)c1cccc(Cl)c1`, which inhibition is on record?
**A.** inactive: 2.82%

**Q.** Which inhibition does the source give for `CN(C)C1(CNC(=O)c2ccc(Br)cc2)CCCCC1` here?
**A.** inactive: 0.87%

**Q.** With `COc1cc(C(=O)NCC2(N(C)C)CCCCC2)c([N+](=O)[O-])cc1OC` as the molecule, how does the inhibition read?
**A.** inactive: -0.63%

**Q.** With `C=CCN1CCN(CCOC(=O)C(O)(c2ccccc2)c2ccccc2)CC1` as the molecule, how does the inhibition read?
**A.** inactive: 2.47%

**Q.** With `O=C(NCC1(N2CCCCC2)CCCCC1)c1cc(F)c(F)cc1Cl` as the molecule, how does the inhibition read?
**A.** inactive: 1.84%

**Q.** Which inhibition does the source give for `Cc1cc(C(=O)NCC2(N3CCCCC3)CCCCC2)ccc1[N+](=O)[O-]` here?
**A.** inactive: 1.2%

**Q.** With `CCN1CCCC(OC(=O)C2(O)c3ccccc3C=Cc3ccccc32)C1` (stereo unspecified) as the molecule, how does the inhibition read?
**A.** inactive: -3.87%

**Q.** With `O=C(NCC1(N2CCCCC2)CCCCC1)c1cccc(Br)c1` as the molecule, how does the inhibition read?
**A.** inactive: 0.48%

**Q.** With `COc1ccc(C(=O)NCC2(N(C)C)CCCCC2)cc1` as the molecule, how does the inhibition read?
**A.** inactive: 1.51%

**Q.** For `Cc1ccccc1C(=O)NCC1(N2CCCCC2)CCCCC1`, which inhibition is on record?
**A.** inactive: 2.85%

**Q.** With `CN(C)C1CCCC1OC(=O)C(O)(c1ccccc1)c1ccccc1` (stereo unspecified) as the molecule, how does the inhibition read?
**A.** inactive: 2.53%

**Q.** For `CN(C)c1ccc(C(=O)NCC2(N(C)C)CCCCC2)cc1`, which inhibition is on record?
**A.** inactive: 3.59%

**Q.** For `CC(C)N1C(=O)CC2(CCN(CCOC(=O)C(O)(c3ccccc3)c3ccccc3)CC2)C1=O`, which inhibition is on record?
**A.** inactive: 0.87%

**Q.** For `CCN(CC)CC(C)C(C)OC(=O)C(O)(c1ccccc1)c1ccccc1` (stereo unspecified), which inhibition is on record?
**A.** inactive: 2.6%

**Q.** With `COc1cc(SC)ccc1C(=O)NCC1(N(C)C)CCCCC1` as the molecule, how does the inhibition read?
**A.** inactive: -1.11%

**Q.** Which inhibition does the source give for `Cc1ccc(C(=O)NCC2(N3CCCCC3)CCCCC2)cc1` here?
**A.** inactive: 4.39%

**Q.** For `O=C(NCC1(N2CCCCC2)CCCCC1)c1cc([N+](=O)[O-])ccc1Cl`, which inhibition is on record?
**A.** inactive: 2.3%

**Q.** With `CN1[C@@H]2CC[C@H]1CC(OC(=O)C(O)(c1ccccc1)c1ccccc1)C2` (stereo partly specified) as the molecule, how does the inhibition read?
**A.** inactive: 4.52%
